# Measurements from publication PMC3819908 (Journal of molecular biology, 2011).
# B1: His142 and His285: double histidine mutant of the wild type β1AR for a Zn^2+-bridge (protein, UniProt P07700 1-483, looked up, variant A142H E285H)
# Beta-1 adrenergic receptor: MGDGWLPPDCGPHNRSGGGGATAAPTGSRQVSAELLSQQWEAGMSLLMALVVLLIVAGNVLVIAAIGRTQRLQTLTNLFITSLACADLVMGLLVVPFGATLVVRGTWLWGSFLCECWTSLDVLCVTASIETLCVIAIDRYLHITSPFRYQSLMTRARAKVIICTVWAISALVSFLPIMMHWWRDEDPQALKCYQDPGCCDFVTNRAYAIASSIISFYIPLLIMIFVYLRVYREAKEQIRKIDRCEGRFYGSQEQPQPPPLPQHQPILGNGRASKRKTSRVMAMRHHKALKTLGIIMGVFTLCWLPFFLVNIVNVFNRDLVPDWLFVFFNWLGYANSAFNPIIYCRSPDFRKAFKRLLCFPRKADRRLHAGGQPAPLPGGFISTLGSPEHSPGGTWSDCNGGTRGGSESSLEERHSKTSRSESKMEREKNILATTRFYCTFLGNGDKAVFCTVLRIVKLFEDATCTCPHTHKLKMKWRFKQHQA
# Experiment: Thermostability assay of detergent-solubilised receptors expressed in E. coli
# Assay type: physicochemical, turkey
# Conditions: in the absence of Zn^2+
molecule,measurement,value
B1,decrease in stability relative to the wild type receptor,4 °C
